{"source": "PubChem BioAssay (NCI)", "experiment": "NCI Yeast Anticancer Drug Screen. Data for the CLN2oe strain (AID 163);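 also: 0% = growth of vehicle-only control cultures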", "settings": "S. cerevisiae CLN2oe strain, hits give high values", "protocol": "Growth inhibition of yeast strains with defined genetic alterations is measured as a screen for potential anti-cancer activity. Selected strains with alterations in DNA damage repair or cell cycle control were exposed to compounds and growth inhibition was measured relative to vehicle treated controls. The strain used in this assay is CLN2oe", "note": "The entries are a selection whose mix differs from that of the whole data set. Some structures show a salt or complex split into parts, the way the source records it. More than one record can exist for a structure, and the calls need not agree. Calls of active or inactive are those of the source. Rule as the data show it: active = growth inhibition above about 70%; inactive = the rest.", "data": [{"compound": "[Au].[C-]#N.[C-]#N", "values": [{"measurement": "growth inhibition", "setting": "at 1.2 µM", "value": "inactive: -14%"}, {"measurement": "growth inhibition", "setting": "at 3.7 µM", "value": "inactive: -13%"}, {"measurement": "growth inhibition", "setting": "at 11.0 µM", "value": "inactive: -18%"}, {"measurement": "growth inhibition", "setting": "at 33.0 µM", "value": "inactive: 8%"}, {"measurement": "growth inhibition", "setting": "at 100.0 µM", "value": "inactive: 24%"}]}, {"compound": "Cc1cc2ccccc2cc1C.O=[N+]([O-])c1cc([N+](=O)[O-])cc([N+](=O)[O-])c1", "values": [{"measurement": "growth inhibition", "setting": "at 1.2 µM", "value": "inactive: -3%"}, {"measurement": "growth inhibition", "setting": "at 3.7 µM", "value": "inactive: -12%"}, {"measurement": "growth inhibition", "setting": "at 11.0 µM", "value": "inactive: -1%"}, {"measurement": "growth inhibition", "setting": "at 33.0 µM", "value": "inactive: 10%"}, {"measurement": "growth inhibition", "setting": "at 100.0 µM", "value": "inactive: 61%"}]}, {"compound": "Nc1ccccc1.O=[N+]([O-])c1cc([N+](=O)[O-])cc([N+](=O)[O-])c1", "values": [{"measurement": "growth inhibition", "setting": "at 1.2 µM", "value": "inactive: -1%"}, {"measurement": "growth inhibition", "setting": "at 3.7 µM", "value": "inactive: -1%"}, {"measurement": "growth inhibition", "setting": "at 11.0 µM", "value": "inactive: 14%"}, {"measurement": "growth inhibition", "setting": "at 33.0 µM", "value": "active: 99%"}, {"measurement": "growth inhibition", "setting": "at 100.0 µM", "value": "active: 99%"}]}, {"compound": "COc1ccccc1N.O=[N+]([O-])c1cc([N+](=O)[O-])cc([N+](=O)[O-])c1", "values": [{"measurement": "growth inhibition", "setting": "at 1.2 µM", "value": "inactive: -3%"}, {"measurement": "growth inhibition", "setting": "at 3.7 µM", "value": "inactive: 2%"}, {"measurement": "growth inhibition", "setting": "at 11.0 µM", "value": "inactive: 18%"}, {"measurement": "growth inhibition", "setting": "at 33.0 µM", "value": "active: 99%"}, {"measurement": "growth inhibition", "setting": "at 100.0 µM", "value": "active: 99%"}]}, {"compound": "O=[N+]([O-])C(F)(COCC(O)CO)[N+](=O)[O-]", "note": "(centres undefined)", "values": [{"measurement": "growth inhibition", "setting": "at 1.2 µM", "value": "inactive: 22%"}, {"measurement": "growth inhibition", "setting": "at 3.7 µM", "value": "inactive: 12%"}, {"measurement": "growth inhibition", "setting": "at 11.0 µM", "value": "inactive: 15%"}, {"measurement": "growth inhibition", "setting": "at 33.0 µM", "value": "inactive: 48%"}, {"measurement": "growth inhibition", "setting": "at 100.0 µM", "value": "active: 88%"}]}, {"compound": "[Au+].[Au+].c1ccc([PH+](c2ccccc2)c2ccccc2)cc1.c1ccc([PH+](c2ccccc2)c2ccccc2)cc1.n1n[n-]c(-c2nnn[n-]2)n1", "values": [{"measurement": "growth inhibition", "setting": "at 1.2 µM", "value": "inactive: -8%"}, {"measurement": "growth inhibition", "setting": "at 3.7 µM", "value": "inactive: 15%"}, {"measurement": "growth inhibition", "setting": "at 11.0 µM", "value": "active: 97%"}, {"measurement": "growth inhibition", "setting": "at 33.0 µM", "value": "active: 98%"}, {"measurement": "growth inhibition", "setting": "at 100.0 µM", "value": "active: 98%"}]}, {"compound": "[Au+].[N-]=[N+]=N.c1ccc([PH+](c2ccccc2)c2ccccc2)cc1", "values": [{"measurement": "growth inhibition", "setting": "at 1.2 µM", "value": "inactive: -1%"}, {"measurement": "growth inhibition", "setting": "at 3.7 µM", "value": "active: 90%"}, {"measurement": "growth inhibition", "setting": "at 33.0 µM", "value": "active: 95%"}, {"measurement": "growth inhibition", "setting": "at 100.0 µM", "value": "active: 90%"}]}, {"compound": "Cc1c2ccccc2cc2ccccc12.O=[N+]([O-])c1cc([N+](=O)[O-])c(O)c([N+](=O)[O-])c1", "values": [{"measurement": "growth inhibition", "setting": "at 1.2 µM", "value": "inactive: -4%"}, {"measurement": "growth inhibition", "setting": "at 3.7 µM", "value": "inactive: -2%"}, {"measurement": "growth inhibition", "setting": "at 11.0 µM", "value": "inactive: 6%"}, {"measurement": "growth inhibition", "setting": "at 33.0 µM", "value": "inactive: 10%"}, {"measurement": "growth inhibition", "setting": "at 100.0 µM", "value": "active: 86%"}]}, {"compound": "Cc1ccc2ccc3ccc4ccccc4c3c2c1.O=C1c2cc([N+](=O)[O-])ccc2-c2c1cc([N+](=O)[O-])cc2[N+](=O)[O-]", "values": [{"measurement": "growth inhibition", "setting": "at 1.2 µM", "value": "inactive: -3%"}, {"measurement": "growth inhibition", "setting": "at 3.7 µM", "value": "inactive: -1%"}, {"measurement": "growth inhibition", "setting": "at 11.0 µM", "value": "inactive: -3%"}, {"measurement": "growth inhibition", "setting": "at 33.0 µM", "value": "inactive: 5%"}, {"measurement": "growth inhibition", "setting": "at 100.0 µM", "value": "inactive: 1%"}]}]}
